In paper PMC5751205, “Rapid Non-Enzymatic Glycation of the Insulin Receptor under Hyperglycemic Conditions Inhibits Insulin Binding In Vitro: Implications for Insulin Resistance” (International Journal of Molecular Sciences, 2017):
Entries after “also recorded” stand apart in the source; their conditions may differ.

Sequences of proteins named here, by UniProt entry; tags and fusion partners are left off. Residues count along the entry.
UniProt P01308, 25-54: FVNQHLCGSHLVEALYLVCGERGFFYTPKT
UniProt P01308, 90-110: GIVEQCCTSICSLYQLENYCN

What was measured:
[1] = glucose binding non-covalently to the peptide; ref [41],[42]; cited from earlier work
Procedure: Table 1 Table summarizing experiments to identify motifs determining insulin-receptor (IR) peptide glycation and whether glycation of IR peptides results in inhibition of insulin binding to these peptides. Specifically, this table provides binding constants glucose binding non-covalently to various insulin receptor (IR) peptides; glycation of the same IR peptides at 20 mM glucose for six days; the | column: Glucose Binding Kd (mM)

[2] = target: T1, insulin-HRP (Homo sapiens, UniProt P01308); experiment: Effect of glycation on insulin-HRP binding to IR peptides; conditions: for Ins-HRP Binding Inhibition (Glycated): change in Ins-HRP binding at 10 nM after exposure of the peptide to glycating conditions (six days at 20 mM glucose); for Change of INS-HRP binding to the peptide after glycation: 6-day exposure to 20 mM glucose, triplicate, averaged
Procedure: Insulin receptor peptides (Figure 1) were synthesized by RS Synthesis (Louisville, KY, USA) to at least 95% purity by high pressure liquid chromatography (HPLC) and mass spectrometry. Peptides or recombinant human insulin (rHu) (Lilly, Indianapolis, IN, USA) were dissolved in glucose-free, phenol-red-free, Dulbecco’s modified Eagle growth medium (DMEM) to 1 mg/mL. Stock 2.0 M D-glucose (Sigma-Aldrich, St. Louis, MO, USA) solutions were also made in DMEM. The peptide and glucose stocks were combined to yield final reaction solutions with peptides at 0.1 mg/mL and glucose at […]. Combinations were incubated at 36–38 °C for 1–6 days. Reactions were stopped and solutions were stored by freezing at −20 °C. Glycated peptides were desalted by centrifugal filtration through Ultrafree-MC 5 kda or Ultracel 3 kda filter units. Resulting retentate was resuspended in low ionic strength saline immediately before performing mass spectrometry.
(§1) Each peptide was held constant at 0.1 mg/mL in pH 7.4 phosphate-buffered saline, and 100 μL aliquots were pipetted into rows of a Costar high-binding ELISA plate and incubated for an hour. The plate was washed 3× with 0.1% Tween 20 (Sigma-Aldrich) in 0.05 M phosphate buffered saline (PBS). Two hundred µL 2% polyvinyl alcohol in PBS were added to each well and incubated 1 h. The plates were then washed 3× again with 0.1% Tween 20. A solution of insulin conjugated to horse-radish peroxidase (HRP), 0.83 µg in 1.0 mL PBS, was made and serially diluted with PBS by thirds, ten times. These serial dilutions were added to the plate wells, incubated for an hour, and then washed 3× as before. Finally, 100 µL of stock ABTS [2,2′-azino-bis(3-ethylbenzothiazoline-6-sulphonic acid)] (Millipore, Burlington, MA, USA) was added to each well, incubated for thirty minutes, and the plate was then read on a SpectraMax Plus scanning microplate spectrophotometer at 405 nm. Controls wells lacking peptide but with PVA, INS-HRP and ABTS measured non-specific binding that was subtracted from the absorbance values of the rest of the wells. All experiments were run in triplicate and the averages of the corrected absorbances were then plotted against the concentration of the INS–HRP for each peptide to yield binding curves. Because binding curves are calculated by plotting differences, it was not possible to incorporate error bars into these curves.
The same technique just described in Section 4.3 was used to measure the effect of glycation on INS-HRP binding to IR peptides as above with one change: IR peptides were serially diluted instead of the INS-HRP, which was held constant. This methodological modification was made in order to reduce the amount of IR peptide required to obtain results. As in Section 4.3, each experiment was run in triplicate and the results averaged.

[3] = target: T1, insulin-HRP; experiment: Insulin-HRP binding to IR peptides (ELISA plate, ABTS read-out); conditions: Ins-HRP at 10 nM, IR peptide in the absence of glycation
Procedure: as §1

SMILES: CC(C)C[C@H](NC(=O)[C@H](CS)NC(=O)[C@H](CCC(=O)O)NC(=O)[C@H](CO)NC(=O)[C@H](Cc1c[nH]cn1)NC(=O)[C@H](CS)NC(=O)[C@@H](N)CS)C(=O)NCC(=O)N[C@@H](CC(N)=O)C(=O)N[C@@H](CS)C(=O)N[C@@H](CO)C(=O)N[C@@H](CCC(N)=O)C(=O)N1CCC[C@H]1C(=O)N[C@@H](CC(=O)O)C(=O)N[C@@H](CC(=O)O)C(=O)O [233-248]
- Kd [1]: 46 mM
- Ins-HRP Binding Inhibition (Glycated) [2]: no
- 10 nM Ins-HRP Binding (Native) [3]: no

SMILES: CC(C)C[C@H](NC(=O)[C@H](CC(=O)O)NC(=O)[C@H](CCC(N)=O)NC(=O)[C@H](CS)NC(=O)[C@H](Cc1ccccc1)NC(=O)[C@@H](N)CO)C(=O)N[C@@H](Cc1c[nH]cn1)C(=O)N[C@@H](Cc1c[nH]cn1)C(=O)N[C@@H](CCCCN)C(=O)N[C@@H](CS)C(=O)N[C@@H](CCCCN)C(=O)N[C@@H](CC(N)=O)C(=O)N[C@@H](CO)C(=O)N[C@@H](CCCNC(=N)N)C(=O)N[C@@H](CCCNC(=N)N)C(=O)N[C@@H](CCC(N)=O)C(=O)NCC(=O)O [284–300]
- Insulin-HRP binding after incubation of the peptide in 200 mM glucose ([2]; 200 mM glucose, six days): shifted the curve dramatically to the right
- Change of INS-HRP binding to the peptide after glycation ([2]; listed as IR 284–298): did not alter the affinity; also recorded: negligible effect
- Ins-HRP Binding Inhibition (Glycated) [2]: INSIGNIF.
- 10 nM Ins-HRP Binding (Native) [3]: YES

SMILES: CC[C@H](C)[C@H](NC(=O)[C@H](CCCCN)NC(=O)[C@H](CC(C)C)NC(=O)[C@H](Cc1ccc(O)cc1)NC(=O)CNC(=O)[C@H](CO)NC(=O)[C@@H](NC(=O)[C@@H](N)CCC(=O)O)[C@@H](C)CC)C(=O)N[C@@H](CCCNC(=N)N)C(=O)N[C@@H](CCCNC(=N)N)C(=O)N[C@@H](CO)C(=O)N[C@@H](Cc1ccc(O)cc1)C(=O)N[C@@H](C)C(=O)N[C@@H](CC(C)C)C(=O)N[C@H](C(=O)N[C@@H](CO)C(=O)O)C(C)C [390-405]
- Kd [1]: 30 mM
- Ins-HRP Binding Inhibition (Glycated) [2]: no
- 10 nM Ins-HRP Binding (Native) [3]: no

SMILES: CC(C)C[C@H](NC(=O)[C@H](C)NC(=O)[C@H](Cc1ccc(O)cc1)NC(=O)[C@H](Cc1ccccc1)NC(=O)[C@H](CO)NC(=O)[C@@H](N)Cc1ccc(O)cc1)C(=O)N[C@@H](CC(=O)O)C(=O)N[C@@H](CC(N)=O)C(=O)N[C@@H](CCC(N)=O)C(=O)N[C@@H](CC(N)=O)C(=O)N[C@@H](CC(C)C)C(=O)N[C@@H](CCCNC(=N)N)C(=O)N[C@@H](CCC(N)=O)C(=O)N[C@@H](CC(C)C)C(=O)N[C@@H](Cc1c[nH]c2ccccc12)C(=O)N[C@@H](CC(=O)O)C(=O)N[C@@H](Cc1c[nH]c2ccccc12)C(=O)N[C@@H](CO)C(=O)N[C@@H](CCCCN)C(=O)N[C@@H](Cc1c[nH]cn1)C(=O)O [425-444]
- Ins-HRP Binding Inhibition (Glycated) [2]: no
- 10 nM Ins-HRP Binding (Native) [3]: no

SMILES: CC(C)C[C@H](NC(=O)CNC(=O)[C@H](CCCCN)NC(=O)[C@H](CC(C)C)NC(=O)[C@H](CS)NC(=O)[C@H](Cc1ccc(O)cc1)NC(=O)[C@H](CC(=O)O)NC(=O)[C@H](CC(C)C)NC(=O)[C@H](CCC(=O)O)NC(=O)[C@H](Cc1ccccc1)NC(=O)[C@H](CC(C)C)NC(=O)[C@H](CCC(=O)O)NC(=O)[C@H](CO)NC(=O)[C@H](CC(=O)O)NC(=O)[C@H](CCC(=O)O)NC(=O)[C@H](C)NC(=O)[C@H](CCC(N)=O)NC(=O)[C@H](CCCNC(=N)N)NC(=O)[C@@H](N)CCC(=O)O)C(=O)N[C@@H](CCCCN)C(=O)O [660-679]
- Kd [1]: 70 mM
- Ins-HRP Binding Inhibition (Glycated) [2]: no
- 10 nM Ins-HRP Binding (Native) [3]: no

SMILES: CC(C)C[C@H](NC(=O)CNC(=O)[C@H](CCCNC(=N)N)NC(=O)[C@H](CC(C)C)NC(=O)[C@H](CCCNC(=N)N)NC(=O)[C@H](CS)NC(=O)CNC(=O)[C@H](CCCNC(=N)N)NC(=O)[C@H](CCC(=O)O)NC(=O)[C@H](CC(C)C)NC(=O)[C@H](C)NC(=O)[C@H](Cc1ccccc1)NC(=O)[C@H](Cc1c[nH]cn1)NC(=O)[C@H](CCCCN)NC(=O)[C@H](CCCNC(=N)N)NC(=O)[C@H](CO)NC(=O)[C@@H](NC(=O)[C@H](CS)NC(=O)[C@H](CC(C)C)NC(=O)[C@@H](N)Cc1c[nH]cn1)C(C)C)C(=O)O [897-916]
- Kd [1]: 14 mM
- Change of INS-HRP binding to the peptide after glycation [2]: very significant loss of INS-HRP binding
- Ins-HRP Binding Inhibition (Glycated) [2]: YES
- 10 nM Ins-HRP Binding (Native) [3]: YES
